Legend:
Assay type in all cases: cell-based
[1] = molecular target: T1, rat PTH2R (Rattus norvegicus, UniProt P70555); experiment: cAMP SPA assay for PTH2R activation, rat PTH2R; conditions: HEK293 cells stably expressing rat PTH2R; mean±S.D., n=3-7; read-out: logEC50, increase in cAMP (converted)
T1 construct: V5-His (appears only in the vector name); expressed in transfected cells
Excerpt: (§1) HEK293 cells were transfected with rat and human PTH2R and cell lines that stably express the receptors were established and evaluated. One cell line was selected for each rat and human PTH2R and used for all the functional assays. Specifically, HEK293 cells were transfected with pCDNA3.1/V5-His-RatPTH2R plasmid DNA and pCDNA3.1-E/Uni-lacZ-HumanPTH2R plasmid DNA using FuGENE 6 transfection reagent (Roche Molecular Biochemicals). Three days after transfection, cells were put under selection with 800 μg/ml geneticin (G418, Gibco BRL). After three weeks of selection, single colonies were cloned using cloning cylinders. Cloned colonies were scaled up to T25 flasks. More than 10 cell lines for each plasmid were tested for function in the cAMP SPA assay.
(§2) HEK293PTH2R cells were seeded in a 96-well poly-D-lysine coated plate at 100,000 cells per well and cultured overnight. After washing with 200 μl of PBS and treating with 100 μl of 300 nM IBMX in assay medium (MEM without phenol red and FBS) at 37° C. for 10 min. The assay medium was then aspirated and the cells were washed with PBS. The cellular of cAMP was measured using cAMP SPA Direct Screening (Amersham/Pharmacia RPA559). Each concentration of ligand was repeated as triplicate.

Protein sequences, listed by entry. Tags and fused reporters are not part of them. Residues count along the entry.
UniProt P70555, 25-546: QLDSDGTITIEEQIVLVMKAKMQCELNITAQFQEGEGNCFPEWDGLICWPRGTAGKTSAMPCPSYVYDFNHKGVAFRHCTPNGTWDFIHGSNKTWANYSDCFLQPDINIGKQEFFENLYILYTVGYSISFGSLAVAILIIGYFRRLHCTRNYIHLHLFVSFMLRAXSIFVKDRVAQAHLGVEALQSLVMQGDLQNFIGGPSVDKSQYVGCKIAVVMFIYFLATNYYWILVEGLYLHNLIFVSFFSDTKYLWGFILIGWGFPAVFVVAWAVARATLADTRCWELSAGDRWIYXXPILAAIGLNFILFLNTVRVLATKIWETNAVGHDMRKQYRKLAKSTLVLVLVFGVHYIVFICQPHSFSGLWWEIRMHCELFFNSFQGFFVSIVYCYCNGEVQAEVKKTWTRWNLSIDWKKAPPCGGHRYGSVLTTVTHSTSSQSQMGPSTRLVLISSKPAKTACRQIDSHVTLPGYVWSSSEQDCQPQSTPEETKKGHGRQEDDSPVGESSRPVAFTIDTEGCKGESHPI
UniProt P49190, 25-550: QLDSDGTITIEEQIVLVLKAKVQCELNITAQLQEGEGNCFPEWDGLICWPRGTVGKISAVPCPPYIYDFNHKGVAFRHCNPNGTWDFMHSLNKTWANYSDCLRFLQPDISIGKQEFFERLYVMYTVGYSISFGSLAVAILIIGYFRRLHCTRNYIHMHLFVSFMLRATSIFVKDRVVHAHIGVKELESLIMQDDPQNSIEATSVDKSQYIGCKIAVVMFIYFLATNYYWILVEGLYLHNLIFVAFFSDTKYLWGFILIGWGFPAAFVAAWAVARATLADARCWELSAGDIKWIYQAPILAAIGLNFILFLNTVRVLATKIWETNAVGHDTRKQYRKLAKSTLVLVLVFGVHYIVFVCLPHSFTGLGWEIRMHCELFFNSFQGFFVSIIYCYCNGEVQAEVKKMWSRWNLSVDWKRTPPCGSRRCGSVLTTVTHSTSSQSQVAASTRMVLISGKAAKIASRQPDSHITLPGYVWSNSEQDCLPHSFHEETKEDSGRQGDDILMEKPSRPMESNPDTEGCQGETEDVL

[2] = molecular target: T2, human PTH2R (Homo sapiens, UniProt P49190); experiment: cAMP SPA assay for PTH2R activation, human PTH2R; conditions: HEK293 cells that expressed human PTH2R; mean±S.D., n=4-7; read-out: logEC50, increase in cAMP (converted)
T2 construct: expressed in transfected cells
Excerpt: as §1, §2

[3] = molecular target: T1, rat PTH2R; experiment: Measurement of [Ca2+]i using the FLIPR, rat PTH2R; conditions: HEK293 cells that express rat PTH2R; mean±S.D., n=4-5; read-out: logEC50, increase in [Ca2+]i (peak fluorescence) (converted)
Excerpt: as §1
(§3) HEK293 cells were seeded into […] clear-base 96 well plates (BD Biocoat) coated with poly-D-lysine at a density of 100,000 cells per well in MEM, and cultured overnight.
(§4) Curve-fitting and parameter estimation were carried out using Graph Pad Prism, 3.00 (GraphPad Software Inc., California, U.S.A.).

[4] = molecular target: T2, human PTH2R; experiment: Measurement of [Ca2+]i using the FLIPR, human PTH2R; conditions: HEK293 cells that express human PTH2R; mean±S.D., n=4-5; read-out: logEC50, increase in [Ca2+]i (peak fluorescence) (converted)
Excerpt: as §1, §3, §4

EC50 [1]: 0.126 nM
EC50 [2]: 0.2 nM
EC50 [3]: 50.1 nM
EC50 [4]: 15.8 nM
SMILES: CSCC[C@H](NC(=O)[C@H](Cc1ccc(O)cc1)NC(=O)[C@H](CO)NC(=O)[C@H](CC(=O)O)NC(=O)[C@H](CC(C)C)NC(=O)[C@H](Cc1c[nH]c2ccccc12)NC(=O)[C@H](CCCNC(=N)N)NC(=O)[C@H](CCCNC(=N)N)NC(=O)[C@H](CCCNC(=N)N)NC(=O)[C@H](CCC(=O)O)NC(=O)[C@H](CC(C)C)NC(=O)[C@H](C)NC(=O)[C@H](C)NC(=O)[C@H](CC(C)C)NC(=O)[C@H](CC(C)C)NC(=O)[C@H](CCCNC(=N)N)NC(=O)[C@H](C)NC(=O)[C@H](CCCNC(=N)N)NC(=O)[C@H](CCC(=O)O)NC(=O)[C@H](CCCNC(=N)N)NC(=O)[C@H](Cc1ccccc1)NC(=O)[C@H](C)NC(=O)[C@H](C)NC(=O)[C@H](CC(=O)O)NC(=O)[C@H](CC(=O)O)NC(=O)[C@H](C)NC(=O)[C@H](CC(C)C)NC(=O)[C@H](C)NC(=O)[C@H](CC(C)C)NC(=O)[C@@H](N)CO)C(=O)N[C@@H](CCC(N)=O)C(=O)N[C@@H](CCCCN)C(=O)N[C@@H](CC(C)C)C(=O)N[C@@H](CC(C)C)C(=O)N[C@@H](CC(C)C)C(=O)N[C@@H](CC(C)C)C(=O)N[C@@H](CC(=O)O)C(=O)N[C@@H](C)C(=O)N1CCC[C@H]1C(=O)O [Mouse TIP39, mouse tuberoinfundibular peptide of 39 residues]
